Test results from the supplement of paper PMC11403291.

Chains of the proteins cited; added tags and fusions are not shown. Lines headed by an entry give the natural chain unless they say otherwise; changes in a name come on top.
UniProt O60285: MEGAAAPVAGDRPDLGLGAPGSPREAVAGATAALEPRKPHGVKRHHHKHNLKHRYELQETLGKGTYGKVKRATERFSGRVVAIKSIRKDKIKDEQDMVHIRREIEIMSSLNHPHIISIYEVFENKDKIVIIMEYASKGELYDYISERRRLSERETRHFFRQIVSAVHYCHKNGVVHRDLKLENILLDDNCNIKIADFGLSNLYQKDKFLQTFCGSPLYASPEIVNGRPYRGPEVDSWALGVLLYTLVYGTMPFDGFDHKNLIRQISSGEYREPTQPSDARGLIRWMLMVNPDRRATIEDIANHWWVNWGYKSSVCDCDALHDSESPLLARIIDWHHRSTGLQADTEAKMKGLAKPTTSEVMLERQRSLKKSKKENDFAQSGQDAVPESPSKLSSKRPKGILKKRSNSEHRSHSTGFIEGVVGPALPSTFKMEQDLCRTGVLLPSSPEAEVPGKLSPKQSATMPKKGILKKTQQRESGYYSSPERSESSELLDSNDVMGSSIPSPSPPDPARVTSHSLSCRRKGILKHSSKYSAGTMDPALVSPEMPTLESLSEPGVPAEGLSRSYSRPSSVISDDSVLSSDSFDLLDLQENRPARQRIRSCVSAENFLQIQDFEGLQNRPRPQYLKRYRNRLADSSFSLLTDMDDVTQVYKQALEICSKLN
UniProt P48729: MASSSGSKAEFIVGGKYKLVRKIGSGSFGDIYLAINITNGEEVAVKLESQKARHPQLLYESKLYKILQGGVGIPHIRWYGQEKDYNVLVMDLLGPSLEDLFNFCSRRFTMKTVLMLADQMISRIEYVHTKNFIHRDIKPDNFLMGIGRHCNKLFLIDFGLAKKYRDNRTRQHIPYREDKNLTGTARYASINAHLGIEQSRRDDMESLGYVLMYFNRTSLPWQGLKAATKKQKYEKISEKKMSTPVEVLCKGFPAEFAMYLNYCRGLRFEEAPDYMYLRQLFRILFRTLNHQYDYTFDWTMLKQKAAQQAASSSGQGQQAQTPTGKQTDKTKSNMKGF
UniProt P09619, whole entry: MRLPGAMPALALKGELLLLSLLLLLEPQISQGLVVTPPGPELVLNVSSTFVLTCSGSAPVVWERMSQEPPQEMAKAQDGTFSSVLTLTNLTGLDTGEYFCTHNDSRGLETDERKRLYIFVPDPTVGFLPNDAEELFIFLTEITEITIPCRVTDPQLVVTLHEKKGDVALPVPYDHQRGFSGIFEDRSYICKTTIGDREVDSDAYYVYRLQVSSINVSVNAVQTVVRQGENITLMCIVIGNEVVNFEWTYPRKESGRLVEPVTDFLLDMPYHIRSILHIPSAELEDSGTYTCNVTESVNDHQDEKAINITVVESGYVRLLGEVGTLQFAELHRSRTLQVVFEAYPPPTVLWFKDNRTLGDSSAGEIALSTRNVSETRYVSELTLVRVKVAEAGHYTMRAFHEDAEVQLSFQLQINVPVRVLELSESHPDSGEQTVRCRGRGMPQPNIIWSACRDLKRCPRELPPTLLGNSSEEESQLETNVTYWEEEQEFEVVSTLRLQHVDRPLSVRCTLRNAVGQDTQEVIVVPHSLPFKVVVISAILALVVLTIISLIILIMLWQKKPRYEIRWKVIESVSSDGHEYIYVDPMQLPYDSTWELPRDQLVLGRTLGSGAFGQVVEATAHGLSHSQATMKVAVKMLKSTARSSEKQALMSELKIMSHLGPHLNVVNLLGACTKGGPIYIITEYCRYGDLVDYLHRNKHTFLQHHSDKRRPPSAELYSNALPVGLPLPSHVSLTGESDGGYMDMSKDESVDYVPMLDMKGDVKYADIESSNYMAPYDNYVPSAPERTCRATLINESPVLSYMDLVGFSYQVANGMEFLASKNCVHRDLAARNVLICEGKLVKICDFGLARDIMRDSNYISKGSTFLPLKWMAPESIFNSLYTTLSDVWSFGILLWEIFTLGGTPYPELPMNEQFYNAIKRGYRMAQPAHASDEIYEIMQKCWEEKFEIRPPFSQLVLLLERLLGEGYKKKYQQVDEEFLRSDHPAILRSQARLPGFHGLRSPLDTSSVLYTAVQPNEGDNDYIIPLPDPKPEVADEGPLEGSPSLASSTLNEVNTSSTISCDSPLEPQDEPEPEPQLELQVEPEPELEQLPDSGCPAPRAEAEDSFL
UniProt Q9H2X6: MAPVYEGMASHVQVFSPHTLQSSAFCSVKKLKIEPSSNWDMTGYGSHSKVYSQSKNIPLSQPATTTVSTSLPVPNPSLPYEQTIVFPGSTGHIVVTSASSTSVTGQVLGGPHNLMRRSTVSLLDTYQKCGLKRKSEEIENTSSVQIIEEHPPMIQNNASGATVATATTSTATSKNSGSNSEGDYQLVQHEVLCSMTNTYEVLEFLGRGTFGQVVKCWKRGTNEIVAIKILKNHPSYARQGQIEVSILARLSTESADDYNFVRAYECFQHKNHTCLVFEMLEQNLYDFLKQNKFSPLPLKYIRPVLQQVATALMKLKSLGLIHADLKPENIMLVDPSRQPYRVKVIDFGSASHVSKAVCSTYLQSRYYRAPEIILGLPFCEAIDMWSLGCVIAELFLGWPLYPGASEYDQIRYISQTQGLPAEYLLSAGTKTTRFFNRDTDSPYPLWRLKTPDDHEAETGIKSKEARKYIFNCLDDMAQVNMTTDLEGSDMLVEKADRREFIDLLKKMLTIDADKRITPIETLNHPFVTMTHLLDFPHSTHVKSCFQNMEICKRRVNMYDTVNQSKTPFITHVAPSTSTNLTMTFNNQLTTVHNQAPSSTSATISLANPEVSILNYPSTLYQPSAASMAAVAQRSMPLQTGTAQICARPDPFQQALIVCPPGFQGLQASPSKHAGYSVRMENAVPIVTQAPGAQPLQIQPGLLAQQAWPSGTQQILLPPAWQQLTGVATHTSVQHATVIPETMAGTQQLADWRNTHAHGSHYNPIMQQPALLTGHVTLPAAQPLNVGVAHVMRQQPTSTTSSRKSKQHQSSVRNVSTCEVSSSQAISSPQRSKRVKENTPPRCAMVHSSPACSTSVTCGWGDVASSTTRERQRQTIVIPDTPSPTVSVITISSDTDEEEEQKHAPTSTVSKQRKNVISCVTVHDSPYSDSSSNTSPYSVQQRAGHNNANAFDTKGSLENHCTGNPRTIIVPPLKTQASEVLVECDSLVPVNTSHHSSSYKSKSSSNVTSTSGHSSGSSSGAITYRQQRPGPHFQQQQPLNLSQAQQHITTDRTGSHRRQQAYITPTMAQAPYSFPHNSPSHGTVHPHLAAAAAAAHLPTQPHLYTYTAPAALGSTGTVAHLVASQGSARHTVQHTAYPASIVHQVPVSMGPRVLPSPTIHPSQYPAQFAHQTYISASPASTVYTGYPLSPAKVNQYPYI
UniProt O95382: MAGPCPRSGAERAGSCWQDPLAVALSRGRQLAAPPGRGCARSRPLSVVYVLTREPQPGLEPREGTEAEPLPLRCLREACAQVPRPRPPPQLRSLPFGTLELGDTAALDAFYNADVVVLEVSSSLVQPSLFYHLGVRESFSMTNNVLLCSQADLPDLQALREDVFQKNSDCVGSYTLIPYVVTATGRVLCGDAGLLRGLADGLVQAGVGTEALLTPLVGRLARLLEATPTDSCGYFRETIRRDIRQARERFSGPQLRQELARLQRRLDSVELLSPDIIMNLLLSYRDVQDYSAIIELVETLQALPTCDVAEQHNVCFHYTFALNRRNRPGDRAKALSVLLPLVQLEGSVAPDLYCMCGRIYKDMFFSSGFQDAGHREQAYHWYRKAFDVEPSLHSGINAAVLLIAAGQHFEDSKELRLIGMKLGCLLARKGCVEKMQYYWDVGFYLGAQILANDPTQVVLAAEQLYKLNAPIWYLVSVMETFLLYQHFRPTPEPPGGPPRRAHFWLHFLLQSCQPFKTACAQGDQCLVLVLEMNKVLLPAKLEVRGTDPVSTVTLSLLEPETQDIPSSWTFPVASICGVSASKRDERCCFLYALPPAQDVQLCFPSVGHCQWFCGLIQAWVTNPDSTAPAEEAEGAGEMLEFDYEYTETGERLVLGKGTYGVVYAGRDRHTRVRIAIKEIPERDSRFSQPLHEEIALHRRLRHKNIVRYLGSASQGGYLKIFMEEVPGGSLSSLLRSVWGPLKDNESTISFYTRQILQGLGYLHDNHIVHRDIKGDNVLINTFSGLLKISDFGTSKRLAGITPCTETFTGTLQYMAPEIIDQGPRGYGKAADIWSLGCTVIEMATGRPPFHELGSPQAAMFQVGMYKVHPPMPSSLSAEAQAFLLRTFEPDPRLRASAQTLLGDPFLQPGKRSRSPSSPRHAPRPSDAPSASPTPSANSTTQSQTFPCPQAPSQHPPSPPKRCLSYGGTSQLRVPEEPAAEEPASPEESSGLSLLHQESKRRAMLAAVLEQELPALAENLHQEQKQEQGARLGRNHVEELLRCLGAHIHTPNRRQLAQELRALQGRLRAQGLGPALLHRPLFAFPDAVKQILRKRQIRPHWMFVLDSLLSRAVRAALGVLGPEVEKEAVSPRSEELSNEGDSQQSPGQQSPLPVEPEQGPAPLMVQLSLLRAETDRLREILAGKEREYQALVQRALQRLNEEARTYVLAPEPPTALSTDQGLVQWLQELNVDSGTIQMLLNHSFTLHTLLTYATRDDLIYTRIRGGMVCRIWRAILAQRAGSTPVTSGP
UniProt P23443: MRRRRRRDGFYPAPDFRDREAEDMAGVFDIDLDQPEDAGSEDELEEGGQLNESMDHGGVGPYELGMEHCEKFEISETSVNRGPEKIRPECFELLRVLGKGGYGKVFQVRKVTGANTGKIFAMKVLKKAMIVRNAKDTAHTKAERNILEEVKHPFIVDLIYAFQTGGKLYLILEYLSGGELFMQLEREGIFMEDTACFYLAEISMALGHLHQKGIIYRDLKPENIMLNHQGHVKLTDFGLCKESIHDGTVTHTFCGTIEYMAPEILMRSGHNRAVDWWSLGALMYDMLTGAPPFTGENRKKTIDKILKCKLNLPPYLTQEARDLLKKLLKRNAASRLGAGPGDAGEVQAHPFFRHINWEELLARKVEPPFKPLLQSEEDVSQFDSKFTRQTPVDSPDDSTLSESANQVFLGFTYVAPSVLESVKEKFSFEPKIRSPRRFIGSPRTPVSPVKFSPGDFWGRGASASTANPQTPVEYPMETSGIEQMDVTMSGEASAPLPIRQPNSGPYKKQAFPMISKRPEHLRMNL
UniProt Q92630: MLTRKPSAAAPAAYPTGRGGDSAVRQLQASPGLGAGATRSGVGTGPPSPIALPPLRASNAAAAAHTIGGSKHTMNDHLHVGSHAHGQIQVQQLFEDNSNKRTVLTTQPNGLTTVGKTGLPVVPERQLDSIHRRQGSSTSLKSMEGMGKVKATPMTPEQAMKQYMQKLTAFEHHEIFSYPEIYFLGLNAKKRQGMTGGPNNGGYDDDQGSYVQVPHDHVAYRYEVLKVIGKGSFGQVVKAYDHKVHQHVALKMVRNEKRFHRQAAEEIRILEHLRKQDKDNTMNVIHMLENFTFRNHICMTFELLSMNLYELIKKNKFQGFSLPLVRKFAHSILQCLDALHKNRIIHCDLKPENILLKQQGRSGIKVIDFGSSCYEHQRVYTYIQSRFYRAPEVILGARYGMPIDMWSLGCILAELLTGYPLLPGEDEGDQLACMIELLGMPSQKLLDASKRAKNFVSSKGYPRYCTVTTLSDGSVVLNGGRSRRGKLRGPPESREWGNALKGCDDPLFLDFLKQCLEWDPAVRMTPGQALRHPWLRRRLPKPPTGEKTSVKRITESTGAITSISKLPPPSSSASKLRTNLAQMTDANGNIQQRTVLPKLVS
UniProt Q9HBL8: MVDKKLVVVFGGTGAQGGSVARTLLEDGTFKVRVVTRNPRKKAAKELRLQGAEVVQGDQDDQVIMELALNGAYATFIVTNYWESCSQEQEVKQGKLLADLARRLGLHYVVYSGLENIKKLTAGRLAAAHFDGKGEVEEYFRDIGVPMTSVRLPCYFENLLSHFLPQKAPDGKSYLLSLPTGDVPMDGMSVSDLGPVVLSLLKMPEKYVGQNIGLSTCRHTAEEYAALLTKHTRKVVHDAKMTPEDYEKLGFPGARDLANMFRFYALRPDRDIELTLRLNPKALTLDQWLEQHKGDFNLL
UniProt Q00534, whole entry: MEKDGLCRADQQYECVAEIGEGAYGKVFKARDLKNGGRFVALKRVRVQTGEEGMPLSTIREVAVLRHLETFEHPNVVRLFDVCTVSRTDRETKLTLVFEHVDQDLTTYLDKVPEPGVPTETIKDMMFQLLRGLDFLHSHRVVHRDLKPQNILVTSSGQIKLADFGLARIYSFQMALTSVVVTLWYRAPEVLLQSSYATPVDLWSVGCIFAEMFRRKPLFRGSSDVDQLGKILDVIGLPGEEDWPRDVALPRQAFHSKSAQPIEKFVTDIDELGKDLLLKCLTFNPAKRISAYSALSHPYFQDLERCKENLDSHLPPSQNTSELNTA

Legend:
DYRK1A = DYRK1A (UniProt Q13627); assay: apparent dissociation constant pKd app (kinobead competition) (-log10(M)); higher = stronger binding
CDC42BPG = CDC42BPG (UniProt Q6DT37); assay: as above
NEK1 = NEK1 (UniProt Q96PY6); assay: as above
MAPK11 = MAPK11 (UniProt Q15759); assay: as above
FGFR3 = FGFR3 (UniProt P22607); assay: as above
HIPK3 = HIPK3 (UniProt Q9H422); assay: as above
NUAK1 = NUAK1 (UniProt O60285); assay: as above
CSNK1A1 = CSNK1A1 (UniProt P48729); assay: as above
PDGFRB = PDGFRB (UniProt P09619); assay: as above
HIPK2 = HIPK2 (UniProt Q9H2X6); assay: as above
MAP3K6 = MAP3K6 (UniProt O95382); assay: as above
RPS6KB1 = RPS6KB1 (UniProt P23443); assay: as above
DYRK2 = DYRK2 (UniProt Q92630); assay: as above
CLK2 = CLK2 (UniProt P49760); assay: as above
NQO2 [1] = target: T1, NQO2 (UniProt P16083); assay: IC50 of competition for binding to immobilized-niraparib matrix; conditions: affinity matrix: immobilized niraparib (NHS-Sepharose); lysate: 1:1:1:1 mix of HEK293, K-562, placenta, HepG2 Princen
T1 sequence (whole entry): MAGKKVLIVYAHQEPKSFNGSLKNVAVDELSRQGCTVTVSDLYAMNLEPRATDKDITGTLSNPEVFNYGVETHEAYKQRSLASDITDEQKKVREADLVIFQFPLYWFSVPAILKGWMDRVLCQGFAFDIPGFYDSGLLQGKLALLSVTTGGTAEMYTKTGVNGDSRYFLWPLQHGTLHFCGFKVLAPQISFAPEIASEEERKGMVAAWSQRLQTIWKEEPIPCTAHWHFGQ

NMRAL1 = NMRAL1 (UniProt Q9HBL8); assay: as above; conditions: affinity matrix: immobilized niraparib (NHS-Sepharose); lysate: 1:1:1:1 mix of HEK293, K-562, placenta, HepG2 Princen
NQO2 [2] = target: T1, NQO2; assay: IC50 of competition for binding to PARP-centric bead matrix; conditions: affinity matrix: PARP family-centric bead mix; lysate: MDA-MB-231
ALDH2 = target: T2, ALDH2 (UniProt P05091); assay: as above; conditions: affinity matrix: PARP family-centric bead mix; lysate: MDA-MB-231
T2 sequence (whole entry): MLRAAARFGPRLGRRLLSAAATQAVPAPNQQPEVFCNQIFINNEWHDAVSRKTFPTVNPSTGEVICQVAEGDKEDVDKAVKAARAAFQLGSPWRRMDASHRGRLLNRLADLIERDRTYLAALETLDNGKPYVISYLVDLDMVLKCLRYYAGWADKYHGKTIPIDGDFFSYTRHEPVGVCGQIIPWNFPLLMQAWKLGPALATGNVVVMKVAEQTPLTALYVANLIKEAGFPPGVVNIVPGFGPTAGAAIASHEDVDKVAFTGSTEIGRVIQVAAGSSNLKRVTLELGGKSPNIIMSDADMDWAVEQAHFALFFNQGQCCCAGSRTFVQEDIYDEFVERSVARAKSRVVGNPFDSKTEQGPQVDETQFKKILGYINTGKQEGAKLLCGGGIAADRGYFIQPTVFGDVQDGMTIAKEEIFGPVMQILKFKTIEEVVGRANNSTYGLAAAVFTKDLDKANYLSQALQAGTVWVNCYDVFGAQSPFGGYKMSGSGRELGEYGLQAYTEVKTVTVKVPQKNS

ICK = target: T3, ICK (UniProt Q9UPZ9); assay: as above; conditions: affinity matrix: PARP family-centric bead mix; lysate: MDA-MB-231
T3 sequence (whole entry): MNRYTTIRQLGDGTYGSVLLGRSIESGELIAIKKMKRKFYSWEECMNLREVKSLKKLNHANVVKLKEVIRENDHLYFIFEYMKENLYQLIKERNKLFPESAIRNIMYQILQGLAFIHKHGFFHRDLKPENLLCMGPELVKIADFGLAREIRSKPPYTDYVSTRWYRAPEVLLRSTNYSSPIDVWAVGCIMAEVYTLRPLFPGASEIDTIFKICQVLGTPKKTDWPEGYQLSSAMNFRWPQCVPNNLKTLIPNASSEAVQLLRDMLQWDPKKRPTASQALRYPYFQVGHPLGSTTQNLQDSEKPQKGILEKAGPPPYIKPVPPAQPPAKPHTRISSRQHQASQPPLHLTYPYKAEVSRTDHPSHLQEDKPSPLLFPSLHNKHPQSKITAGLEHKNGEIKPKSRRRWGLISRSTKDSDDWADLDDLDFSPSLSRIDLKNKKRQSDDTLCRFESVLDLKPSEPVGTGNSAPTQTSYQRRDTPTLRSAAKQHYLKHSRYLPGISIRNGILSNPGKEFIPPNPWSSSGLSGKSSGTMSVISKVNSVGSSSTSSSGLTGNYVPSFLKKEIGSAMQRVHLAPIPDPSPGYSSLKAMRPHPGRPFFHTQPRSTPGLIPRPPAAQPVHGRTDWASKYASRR

TESK1 = TESK1 (UniProt Q15569); assay: apparent dissociation constant pKd app (kinobead competition) (-log10(M)); higher = stronger binding
CDK6 = CDK6 (UniProt Q00534); assay: as above

| apparent dissociation constant pKd app (-log10) (DYRK1A) | apparent dissociation constant pKd app (-log10) (CDC42BPG) | apparent dissociation constant pKd app (-log10) (NEK1) | apparent dissociation constant pKd app (-log10) (MAPK11) | apparent dissociation constant pKd app (-log10) (FGFR3) | apparent dissociation constant pKd app (-log10) (HIPK3) | apparent dissociation constant pKd app (-log10) (NUAK1) | apparent dissociation constant pKd app (-log10) (CSNK1A1) | apparent dissociation constant pKd app (-log10) (PDGFRB) | apparent dissociation constant pKd app (-log10) (HIPK2) | apparent dissociation constant pKd app (-log10) (MAP3K6) | apparent dissociation constant pKd app (-log10) (RPS6KB1) | apparent dissociation constant pKd app (-log10) (DYRK2) | apparent dissociation constant pKd app (-log10) (CLK2) | IC50 (NQO2 [1]) [µM] | IC50 (NMRAL1) [µM] | IC50 (NQO2 [2]) [nM] | IC50 (ALDH2) [µM] | IC50 (ICK) [µM] | apparent dissociation constant pKd app (-log10) (TESK1) | apparent dissociation constant pKd app (-log10) (CDK6) | SMILES |
| --- | --- | --- | --- | --- | --- | --- | --- | --- | --- | --- | --- | --- | --- | --- | --- | --- | --- | --- | --- | --- | --- |
| < 4.6 | < 4.5 | < 4.5 | < 4.7 | < 4.6 | < 4.7 | < 4.7 | < 4.5 | < 4.5 | < 4.7 | < 4.5 | < 4.5 | < 4.6 | < 4.7 | 2.3 | 9.7 | 2440 | > 30 | > 30 | – | – | O=C(c1cc(Cc2n[nH]c(=O)c3ccccc23)ccc1F)N1CCN(C(=O)C2CC2)CC1 [Olaparib] |
| – | < 4.5 | < 4.5 | < 4.7 | < 4.6 | – | < 4.7 | – | – | – | < 4.5 | < 4.5 | – | < 4.7 | 5.59 | 2.19 | 1470 | 22 | 14 | < 4.7 | < 4.5 | NC(=O)c1cccc2cn(-c3ccc([C@@H]4CCCNC4)cc3)nc12 [Niraparib] |
| < 4.6 | – | – | – | – | < 4.7 | – | < 4.5 | < 4.5 | < 4.7 | – | – | < 4.6 | – | > 30 | > 30 | > 30000 | > 30 | > 30 | < 4.7 | < 4.5 | Cn1ncnc1[C@H]1c2n[nH]c(=O)c3cc(F)cc(c23)N[C@@H]1c1ccc(F)cc1 [Talazoparib] |
